Read-outs that look alike come from different tables or passages of the source.
Assays:
[1] = 2 nmol 13-QY9-6 in 45μg mDC CL097 extract, after 10 minutes, mass spectrometry
[2] = 2 nmol 13-QY9-6 in 45μg mMP CL097 extract, after 10 minutes, mass spectrometry

## CSCC[C@H](NC(=O)[C@@H]1CCCN1C(=O)[C@H](CCCNC(=N)N)NC(=O)[C@H](CC(C)C)NC(=O)[C@@H]1CCCN1C(=O)[C@@H](NC(=O)[C@H](CCC(N)=O)NC(=O)[C@@H]1CCCN1C(=O)[C@@H](NC(=O)[C@@H](NC(=O)[C@@H]1CCCN1C(=O)[C@H](Cc1ccccc1)NC(=O)CNC(=O)[C@@H](NC(=O)[C@H](CCC(=O)O)NC(=O)[C@H](CCC(=O)O)NC(=O)[C@H](CCC(=O)O)NC(=O)[C@H](CCC(=O)O)NC(=O)[C@H](CCC(N)=O)NC(=O)[C@H](C)N)C(C)C)C(C)C)[C@@H](C)O)C(C)C)C(=O)N[C@H](C(=O)N[C@@H](Cc1ccc(O)cc1)C(=O)N[C@@H](CCCCN)C(=O)N[C@@H](C)C(=O)N[C@@H](C)C(=O)N[C@H](C(=O)N[C@@H](CC(=O)O)C(=O)N[C@@H](CC(C)C)C(=O)O)C(C)C)[C@@H](C)O [13-QY9-6]
[1]
  contribution of peptides longer than 26aa to total peak intensity: 85%
[2]
  contribution of peptides longer than 26aa to total peak intensity: 85%
